The conditions of series [1]: concentrations greater than 0.15 mg/mL in water.
For series [2] the following is noted: mouse.
The mark [3] stands for this setting: i.v. 0.05 mmol/kg, 3 minutes, ± S.D.
Setting [4] is: i.v. 0.05 mmol/kg, 15 minutes, approximately.

From patent US6010681A, “Biodegradable blood-pool contrast agents” (Nycomed Salutar, Inc., priority 1994, dated 2000) come the findings set out here.

Where two headings read alike, the source gives them in different places. A value given as a limit tells only on which side of the number the result lay.

On to “mono-sulfonate, monoamino-PEGylated silicon phthalocyanine [La Jolla Blue II]”, for which the “passage through 0.2 μm filter” value in series [1] is “did pass through 0.2 μm filter”. Moreover, the “passage through membrane filter of MWCO 30 KD” value in series [1] was “did not pass through a membrane filter of MWCO 30 KD”. In series [2] (i.v. 0.05 mmol/kg), the “biodistribution and excretion pattern” value is recorded as “more consistent with that of a blood pool agent than an extracellular fluid agent”. Moreover, the “Liver level, change over study” value in series [2] (i.v. 0.05 mmol/kg, 3 minutes to 7 days) is “did not change significantly during the 7 days”. In addition, the “Blood level (of the administered dose)” value in series [2] (setting [3]) was 15.71%±2.43; in series [2] (i.v. 0.05 mmol/kg, 4 hours, ± S.D.) it was 12.64%±3.39; in series [2] (i.v. 0.05 mmol/kg, 24 hours, ± S.D.) it was 2.79%±0.14; in series [2] (i.v. 0.05 mmol/kg, 7 days, ± S.D.), 0.05%±0.00. The results for the “Kidney level (of the administered dose)” value in series [2] (setting [3]) and in series [2] (setting [4]) were 1.37%±0.11 and ≤ 1%, respectively. Further, in series [2] (setting [3]), the “Liver level (of the administered dose)” value is on record as 2.41%±0.82. The “Lung level (of the administered dose)” value in series [2] (setting [4]) is ≤ 1%; in series [2] (i.v. 0.05 mmol/kg, 60 minutes, ± S.D.) it was 1.09%±0.20. Moreover, the “Cumulative recovery in the urine” value in series [2] (i.v. 0.05 mmol/kg, 2 hours, n=8) is 45.52%±4.92; in series [2] (i.v. 0.05 mmol/kg, 24 hours, n=6) it was “approximately 76%”. Also, in series [2] (i.v. 0.05 mmol/kg, after 7 days), the “Accounted for in feces” value is “less than 1%”. Also, in series [2] (i.v. 0.05 mmol/kg, after 7 days, n=3), the Recovered in urine was 78.01%±10.10. In addition, in series [2] (inferred from fluorescence detectable for up to 7 days), the “in vivo metabolism of the ring structure” value is recorded as “no significant in vivo metabolism of the ring structure”.
